According to PMC7911104, “ALK2 Receptor Kinase Association with FKBP12.6 Is Structurally Conserved with the ALK2-FKBP12 Complex” (Biomedicines, 2021):

Assays:
Experiment in all cases: SEC-MALS; Shodex KW-803 column; proteins at 5 mg/mL in 50 mM HEPES pH 7.5, 300 mM NaCl, 0.5 mM TCEP; 0.5 mL/min; receptor domains alone and mixed with FKBP12.6
Conditions in all cases: both partners purified
[1] = target: T1, ALK6 (BMPR1B) intracellular domain, residues 168-502 (human, UniProt O00238 168-502)
T1 construct: ALK6 (BMPR1B), human, intracellular domain residues 168-502, cloned into pFB-LIC-Bse; source: Sf9 insect cells (baculovirus), purified (nickel-sepharose, TEV cleavage, SEC); not shown: His6, N-terminal, cleaved
T1 sequence (looked up): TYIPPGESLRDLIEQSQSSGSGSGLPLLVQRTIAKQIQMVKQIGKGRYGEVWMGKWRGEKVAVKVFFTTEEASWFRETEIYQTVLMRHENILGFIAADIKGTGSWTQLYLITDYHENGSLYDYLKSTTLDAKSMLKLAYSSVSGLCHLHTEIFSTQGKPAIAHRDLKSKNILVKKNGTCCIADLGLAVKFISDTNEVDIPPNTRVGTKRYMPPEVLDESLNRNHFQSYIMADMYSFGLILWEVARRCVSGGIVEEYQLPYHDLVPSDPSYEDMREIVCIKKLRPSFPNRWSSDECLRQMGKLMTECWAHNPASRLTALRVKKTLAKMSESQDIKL

[2] = target: T2, ALK5 (TGFBR1) intracellular domain, residues 162-503 (human, UniProt P36897 162-503)
T2 construct: ALK5 (TGFBR1), human, intracellular domain residues 162-503, cloned into pFB-LIC-Bse; source: Sf9 insect cells (baculovirus), purified (nickel-sepharose, TEV cleavage, SEC); not shown: His6, N-terminal, cleaved
T2 sequence (looked up): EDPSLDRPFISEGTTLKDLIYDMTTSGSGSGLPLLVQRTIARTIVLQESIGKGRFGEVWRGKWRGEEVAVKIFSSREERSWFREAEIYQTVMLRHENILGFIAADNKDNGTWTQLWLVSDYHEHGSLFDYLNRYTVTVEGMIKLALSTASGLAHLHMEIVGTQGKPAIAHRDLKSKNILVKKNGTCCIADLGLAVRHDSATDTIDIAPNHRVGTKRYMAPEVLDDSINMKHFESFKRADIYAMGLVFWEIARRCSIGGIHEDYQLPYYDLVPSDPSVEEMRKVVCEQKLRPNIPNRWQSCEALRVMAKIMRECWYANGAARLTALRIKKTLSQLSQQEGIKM

[3] = target: T3, ALK2 (ACVR1) intracellular domain, residues 172-499 (GS and kinase domains) (human, UniProt Q04771 172-499)
T3 construct: ALK2 (ACVR1), human, intracellular residues 172-499 with the GS and kinase domains, cloned into pFB-LIC-Bse; source: Sf9 insect cells (baculovirus), purified (nickel-sepharose, TEV cleavage, SEC); not shown: His6, N-terminal, cleaved
T3 sequence (looked up): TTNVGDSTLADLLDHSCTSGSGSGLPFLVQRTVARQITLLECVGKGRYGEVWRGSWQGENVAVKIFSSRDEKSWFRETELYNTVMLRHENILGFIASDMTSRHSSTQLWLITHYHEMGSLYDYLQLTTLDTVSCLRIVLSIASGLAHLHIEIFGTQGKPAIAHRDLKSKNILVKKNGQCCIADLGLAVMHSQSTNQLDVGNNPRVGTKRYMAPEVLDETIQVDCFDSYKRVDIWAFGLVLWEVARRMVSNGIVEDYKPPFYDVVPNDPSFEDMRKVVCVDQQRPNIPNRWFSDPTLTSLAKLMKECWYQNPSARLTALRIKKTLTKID

Measured: stoichiometry N

B1: FKBP12.6 (FKBP1B), full length, recombinant (natural protein, human, UniProt P68106 1-108, looked up)
chain: MGVEIETISPGDGRTFPKKGQTCVVHYTGMLQNGKKFDSSRDRNKPFKFRIGKQEVIKGFEEGAAQMSLGQRAKLTCTPDVAYGATGHPGVIPPNATLIFDVELLNLE
notes: FKBP12.6 (FKBP1B), human, full length, cloned into pNIC28-Bsa4; 108 amino acids; source: E. coli BL21(DE3)R3-pRARE2, purified (nickel-sepharose, TEV cleavage, SEC); not shown: His6, N-terminal, cleaved
1: [1] | [2] | [3]
